# Measured values as given in PubChem BioAssay AID686978 (National Center for Advancing Translational Sciences (NCATS), 2013).
# The list shows a part of the results, in another mix than the full data. Results filed as inconclusive are left out. Calls of active or inactive are those of the source. Calls come from the whole dose curve; as a rule, active = well fitted inhibition curve with a large enough effect; inconclusive = small, poorly fitted or top-dose-only effect; inactive = flat fitted curve, though single readings scatter.
# Assay: qHTS for Inhibitors of human tyrosyl-DNA phosphodiesterase 1 (TDP1): qHTS in cells in absence of CPT; note: nearly all actives have a fitted effect of over 55% in size
# Conditions: DT40 Tdp1-/- hTDP1 cells, no CPT, ATP luminescence, 48 h
# % is set by controls: 0 for no effect and ±100 for the full control effect.
smiles,measurement,setting,value
CCC(=O)N(c1ccccc1)C1(COC)CCN(CCn2nnn(CC)c2=O)CC1,"activity change, negative = growth inhibition",at 46.2 µM (top of the series),inactive: -20.7%
same,"activity change, negative = growth inhibition",at 92.5 µM (top of the series),inactive: -15.5%
